Data on one compound can be found in BindingDB's records for patent US8609622 (Shanghai Hengrui Pharmaceutical, 2013).

In general, IC50 refers to the concentration that gives 50% inhibition.

For this experiment, the target named is T1, SGLT1 protein (Mus musculus, UniProt Q9QXI6).
T1 sequence (Q9QXI6 whole entry): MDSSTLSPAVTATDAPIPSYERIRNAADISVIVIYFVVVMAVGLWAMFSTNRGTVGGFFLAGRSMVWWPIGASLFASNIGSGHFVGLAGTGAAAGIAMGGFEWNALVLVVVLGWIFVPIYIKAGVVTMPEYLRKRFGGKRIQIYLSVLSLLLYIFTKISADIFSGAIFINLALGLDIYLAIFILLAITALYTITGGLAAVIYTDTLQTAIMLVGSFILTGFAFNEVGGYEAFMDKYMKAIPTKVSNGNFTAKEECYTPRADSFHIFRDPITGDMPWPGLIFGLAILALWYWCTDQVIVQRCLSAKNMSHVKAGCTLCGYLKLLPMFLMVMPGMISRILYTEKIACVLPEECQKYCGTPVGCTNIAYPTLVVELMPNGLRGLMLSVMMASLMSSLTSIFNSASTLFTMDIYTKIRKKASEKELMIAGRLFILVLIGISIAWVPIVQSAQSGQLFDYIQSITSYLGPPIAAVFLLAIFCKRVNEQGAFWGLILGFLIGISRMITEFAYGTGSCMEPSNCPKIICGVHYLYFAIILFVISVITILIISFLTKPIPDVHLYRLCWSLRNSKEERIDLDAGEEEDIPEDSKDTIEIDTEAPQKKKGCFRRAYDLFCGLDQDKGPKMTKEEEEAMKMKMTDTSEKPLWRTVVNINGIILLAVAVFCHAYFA
Nature of the experiment: Inhibition Assay.

Compound `CCOc1ccc(Cc2cc(C34OCC(CO)(O3)C(O)C(O)C4O)ccc2Cl)c(F)c1F` (single isomer, unassigned) [US8609622, 3] showed an IC50 of more than 2000 nM.
